# Source: US20230295312A1 (AKESO BIOPHARMA, published 2023)
# T1: human IL4RA-hFc (human, UniProt P24394 26-232)
# T1 construct: mature; Coating antigen in ELISA
# T1 sequence (looked up): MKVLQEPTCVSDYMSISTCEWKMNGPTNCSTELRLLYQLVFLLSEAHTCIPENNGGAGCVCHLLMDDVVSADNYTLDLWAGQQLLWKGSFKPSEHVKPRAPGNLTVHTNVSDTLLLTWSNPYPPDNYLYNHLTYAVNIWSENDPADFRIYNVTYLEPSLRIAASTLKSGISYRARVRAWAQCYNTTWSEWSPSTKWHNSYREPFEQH
# Experiments:
# human IL4RA-mFc [1] = molecular target: T2, human IL4RA-mFc (human, UniProt P24394 26-232); assay: indirect ELISA
# T2 construct: mature; Immunogen and coating antigen
# Method: (§1) Procedures: The ELISA plates were coated with human IL4RA-hFc or human IL4RA-mFc and were incubated, and target antibodies were added after blocking. […] The plates were incubated and washed before TMB (Neogen, 308177) was added for chromogenic reaction. At the end of the reaction, the absorbance at 450 nm was measured by a plate reader. The data were analyzed by SoftMax Pro 6.2.1.
# human IL4RA-mFc [2] = molecular target: T2, human IL4RA-mFc; assay: indirect ELISA; no Ab (0, blank)
# Method: as §1
# human IL4RA-hFc [3] = molecular target: T1, human IL4RA-hFc; assay: competitive ELISA; blocks IL4-N-His binding to coated IL4RA-hFc
# Method: (§2) The ELISA plates were coated with human IL4RA-hFc and blocked before the antibodies were added. […] After the plates were washed, mouse anti-His, HRP (purchased from CoWin Biosciences, Cat No. CW0285A) was added for incubation. The plates were subjected to another wash. Chromogenic reaction was started by adding TMB (Neogen, 308177) and was then terminated. At the end of the reaction, the OD value at 450 nm wavelength was measured by a plate reader, and was analyzed and processed by SoftMax Pro 6.2.1.
# (§3) By 4-parameter logistic regression of absorbance vs. antibody concentration, the blocking EC₅₀ of the antibodies was calculated.
# human IL4RA-hFc [4] = molecular target: T1, human IL4RA-hFc; assay: as above; remark: listed apart in the source
# Method: as §2, §3
# human IL4RA-hFc [5] = molecular target: T1, human IL4RA-hFc; assay: competitive ELISA; blocks IL4-N-His (0.15 ug/ml) binding to coated IL4RA-hFc (2 ug/mL)
# Method: as §2, §3
# human IL4RA-mFc [6] = molecular target: T2, human IL4RA-mFc; assay: indirect ELISA; remark: listed apart in the source
# Method: as §1
# human IL4RA-mFc [7] = molecular target: T2, human IL4RA-mFc; assay: indirect ELISA, antigen coated 1 ug/mL
# Method: as §1
# human IL4RA-mFc [8] = molecular target: T2, human IL4RA-mFc; assay: indirect ELISA, antigen coated 1 ug/mL; remark: listed apart in the source
# Method: as §1
# human IL4RA-hFc [9] = molecular target: T1, human IL4RA-hFc; assay: competitive ELISA vs IL4-N-His; Ab 3 ug/mL
# Method: as §2
# human IL4RA-mFc [10] = molecular target: T2, human IL4RA-mFc; assay: indirect ELISA; Ab 0.333 ug/mL diluted 1:729
# Method: as §1
# human IL4RA-hFc [11] = molecular target: T1, human IL4RA-hFc; assay: competitive ELISA; blocks IL4-N-His binding to coated IL4RA-hFc; remark: listed apart in the source
# human IL4RA-hFc [12] = molecular target: T1, human IL4RA-hFc; assay: competitive ELISA; blocks IL4-N-His (0.15 ug/ml) binding to coated IL4RA-hFc (2 ug/mL); remark: listed apart in the source
# Method: as §2, with “CW0285M)” for “CW0285A)”
# as §3
Binder,EC50 (human IL4RA-mFc [1]) [nM],EC50 (human IL4RA-hFc [4]) [nM],EC50 (human IL4RA-mFc [6]) [nM],EC50 (human IL4RA-hFc [12]) [nM],other results
"13E5 H4L2 (antibody, IgG4, V domains shown) VH: QVQLVQSGAEVVKPGASVKVSCKTSGYTFTEYTIHWVRQAPGQSLEWIGGINPNNGGTVYNQKFQGKVTLTVDKSTSTAYMELSSLRSEDTAVYYCARVRRGMDYWGQGTSVTVSS VL: DIQMTQSPSSLSASVGDRVTITCRASQDVTTAVAWYQQKPGKAPKLLIYSASSRYTGVPSRFSGSGSGTDFTLTISSVQPEDLATYYCQQHYSAPWTFGGGTNLEIKR",0.079,,,,OD450 (human IL4RA-mFc [2]): 0.063; EC50 (human IL4RA-hFc [3]): 1.15 nM
"13E5 H1L1 (antibody, IgG4, V domains shown) VH: QVQLQQSGAEVVKPGASVKISCKTSGYTFTEYTIHWVKQAHGQSLEWIGGINPNNGGTVYNQKFQGKATLTVDKSTSTAYMELRSLTSEDTAVYYCARVRRGMDYWGQGTSVTVSS VL: DIQMTQSPKSLSTSVGDRVTITCRASQDVTTAVAWYQQKPGKSPKLLIYSASYRYTGVPSRFSGSGSGTDFTFTISSVQPEDLATYYCQQHYSAPWTFGGGTNLEIKR",0.035,0.875,,,
"13E5 H2L2 (antibody, IgG4, V domains shown) VH: QVQLVQSGAEVVKPGASVKVSCKTSGYTFTEYTIHWVRQAPGQSLEWIGGINPNNGGTNYNQKFQGKVTLTVDKSTSTAYMELSSLRSEDTAVYYCARVRRGMDYWGQGTSVTVSS VL: DIQMTQSPSSLSASVGDRVTITCRASQDVTTAVAWYQQKPGKAPKLLIYSASSRYTGVPSRFSGSGSGTDFTLTISSVQPEDLATYYCQQHYSAPWTFGGGTNLEIKR",0.04,0.819,,,
"13E5 H3L3 (antibody, IgG4, V domains shown) VH: QVQLVQSGAEVVKPGASVKVSCKASGYTFTEYTIHWVRQAPGQGLEWIGGINPNNGGTNYAQKFQGRVTITVDKSTSTAYMELSSLRSEDTAVYYCARVRRGMDYWGQGTSVTVSS VL: DIQMTQSPSSLSASVGDRVTITCRASQDVTTALAWYQQKPGKAPKLLIYSASSLYTGVPSRFSGSGSGTDFTLTISSLQPEDFATYYCQQHYSAPWTFGGGTNLEIKR",0.042,0.636,,,OD450 (human IL4RA-mFc [2]): 0.056
"13E5 H4L4 (antibody, IgG4, V domains shown) VH: QVQLVQSGAEVVKPGASVKVSCKTSGYTFTEYTIHWVRQAPGQSLEWIGGINPNNGGTVYNQKFQGKVTLTVDKSTSTAYMELSSLRSEDTAVYYCARVRRGMDYWGQGTSVTVSS VL: DIQMTQSPSSLSASVGDRVTITCRASQDVTTAVAWYQQKPGKAPKLLIYSASYRYTGVPSRFSGSGSGTDFTLTISSVQPEDLATYYCQQHYSAPWTFGGGTNLEIKR",0.079,,,,EC50 (human IL4RA-hFc [3]): 1.33 nM; EC50 (human IL4RA-hFc [5]): 0.532 nM
"18H7 H2L2 (antibody, IgG4, V domains shown) VH: EVQLVESGGGLVQPGGSLRLSCAASGFTFSSSYMSWVRQAPGKRLELVAAINSNGGKTYYADSVKGRFTISRDNSKNTLYLQMSSLRAEDTAVYYCTRQRGNYVGAMDYWGQGTSVTVSS VL: DIQMTQSPSSLSASVGDRVTITCQASQDVSTAVVWYQQKPGKSPKLLIYSASYLYTGVPSRFSGSGSGTDFTFTISSLQPEDIATYYCHQYYGSPPTFGGGTKLEIKR",,,0.087,2.3,
"20G10 H3L3 (antibody, IgG4, V domains shown) VH: QVTLKESGPTLVKPTQTLTLTCTFSGFSLSTSGMGVGWIRQPPGKALEWLALIWWADDKRYSTSLKSRLTISKDTSKNQVVLTITNVDPVDTATYYCARITRGNSAMDFWGQGTSVTVSS VL: DIQMTQSPSSLSASVGDRVTITCRASENVYSYLNWYQQKPGKAPKLLIYNAKSLQSGVPSRFSGSGSGTDFTLTISSLQPEDFATYYCQHHYGIPWTFGGGTKLEIKR",,,,,EC50 (human IL4RA-hFc [5]): 0.742 nM

# Now from value to binder, other results behind:
EC50 (human IL4RA-mFc [1]) [nM],EC50 (human IL4RA-hFc [4]) [nM],EC50 (human IL4RA-mFc [6]) [nM],EC50 (human IL4RA-hFc [12]) [nM],Binder,other results
0.066,0.943,0.067,3.03,"dupilumab VAB 16F3-1 (antibody, V domains shown) VH: EVQLVESGGGLVQPGRSLRLSCEASGFTFDDYAMHWVRQAPGKGLEWVSGLSRTSVSIGYADSVKGRFTISRDNAKNSLYLEMNSLRPEDTALYYCAKWGTRGYFDYWGQGTLVTVSS VL: DIQMTQSPSSVSASVGDRVTITCRASQDISIWLAWYQQSPGKAPKLLINVASRLQSGVPSRFSGSGSGTDFTLTINSLQPEDFVTYYCQQANSFPITFGQGTRLATKR",EC50 (human IL4RA-mFc [7]): 0.077 nM; EC50 (human IL4RA-mFc [8]): 0.077 nM; OD450 (human IL4RA-hFc [9]): 0.059; OD450 (human IL4RA-mFc [10]): 0.147; EC50 (human IL4RA-hFc [11]): 3.03 nM; EC50 (human IL4RA-hFc [3]): 1.55 nM; EC50 (human IL4RA-hFc [5]): 0.865 nM
,,0.087,1.66,"18H7 H1L1 (antibody, IgG4, V domains shown) VH: DVQLVESGGGLVQLGGSLRLSCAASGFTFSSSYMSWVRQTPEKRLELVAAINSNGGKTYYADSVKGRFTISRDNSKNTLYLQMSSLRAEDTAVYYCTRQRGNYVGAMDYWGQGTSVTVSS VL: DIQMTQSPSSLSTSVGDRVTITCKASQDVSTAVVWYQQKPGKSPKLLIYSASYRYTGVPSRFSGSGSGTDFTFTISSVQPEDIATYYCHQYYGSPPTFGGGTKLEIKR",
,,0.094,2.51,"18H7 H2L3 (antibody, IgG4, V domains shown) VH: EVQLVESGGGLVQPGGSLRLSCAASGFTFSSSYMSWVRQAPGKRLELVAAINSNGGKTYYADSVKGRFTISRDNSKNTLYLQMSSLRAEDTAVYYCTRQRGNYVGAMDYWGQGTSVTVSS VL: DIQMTQSPSSLSASVGDRVTITCQASQDVSTALAWYQQKPGKAPKLLIYSASNLETGVPSRFSGSGSGTDFTFTISSLQPEDIATYYCHQYYGSPPTFGGGTKLEIKR",
,,0.1,2.33,"18H7 H3L2 (antibody, IgG4, V domains shown) VH: EVQLVESGGGLVQPGGSLRLSCAASGFTFSSSYMSWVRQAPGKGLEYVSAINSNGGKTYYADSVKGRFTISRDNSKNTLYLQMSSLRAEDTAVYYCTRQRGNYVGAMDYWGQGTSVTVSS VL: DIQMTQSPSSLSASVGDRVTITCQASQDVSTAVVWYQQKPGKSPKLLIYSASYLYTGVPSRFSGSGSGTDFTFTISSLQPEDIATYYCHQYYGSPPTFGGGTKLEIKR",
,,0.446,,"18H7 H3L3 (antibody, IgG4, V domains shown) VH: EVQLVESGGGLVQPGGSLRLSCAASGFTFSSSYMSWVRQAPGKGLEYVSAINSNGGKTYYADSVKGRFTISRDNSKNTLYLQMSSLRAEDTAVYYCTRQRGNYVGAMDYWGQGTSVTVSS VL: DIQMTQSPSSLSASVGDRVTITCQASQDVSTALAWYQQKPGKAPKLLIYSASNLETGVPSRFSGSGSGTDFTFTISSLQPEDIATYYCHQYYGSPPTFGGGTKLEIKR",
